Test results published in ChEMBL document CHEMBL1132186, “Structure-based design of selective inhibitors of dihydrofolate reductase: synthesis and antiparasitic activity of 2, 4-diaminopteridine analogues with a bridged diarylamine side chain” (J Med Chem, 1999).

Biological target: T1, Dihydrofolate reductase (Mycobacterium avium, UniProt O30463)
T1 sequence (O30463 whole entry): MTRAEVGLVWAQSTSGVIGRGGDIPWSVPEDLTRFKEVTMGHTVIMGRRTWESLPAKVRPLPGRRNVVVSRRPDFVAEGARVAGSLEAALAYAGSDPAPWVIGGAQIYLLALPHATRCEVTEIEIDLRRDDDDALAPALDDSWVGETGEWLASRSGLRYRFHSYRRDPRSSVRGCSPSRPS
Assay: Inhibitory activity against DHFR (Dihydrofolate reductase) from Mycobacterium avium

With `Nc1nc(N)c2nc(CN3c4ccccc4Oc4ccccc43)cnc2n1` the IC50 was 2500 nM.
